Data from patent US20080026088A1, “Reduced isoalpha acid based protein kinase modulation cancer treatment” (Metaproteomics, LLC, priority 2006, published 2008).

Experiment: Non-fasting serum glucose and insulin in KK-Ay diabetic mice
Type: in vivo, mouse
Details: 1.0 mg/kg-day by gavage, once daily for three days

In the case of `CN(CCOc1ccc(CC2SC(=O)NC2=O)cc1)c1ccccn1` (centres unmarked) [rosiglitazone], the “Insulin (non-fasting serum)” value (control 93.3 (critical value 85.4)) is reported as 88.7 % Pretreatment and the “Glucose (non-fasting serum)” value (control 102.6 (critical value 98.7)) is reported as 80.3# % Pretreatment.

Marks after values point to notes of the source that are not given here.
